# Results taken from PubChem BioAssay AID720535 (National Center for Advancing Translational Sciences (NCATS), 2013).
# This is a selection; strong and weak results do not stand in their true shares. Inconclusive results are not listed. Active and inactive are the calls of the source. Calls follow the shape of the dose curve; as a rule, active = well fitted inhibition curve with a large enough effect; inconclusive = small, poorly fitted or top-dose-only effect; inactive = flat fitted curve, though single readings scatter.
# Experiment: qHTS for Inhibitors of TGF-b: Cytotox Counterscreen for Cherry Picks; also: nearly all actives have a fitted effect of over 70% in size
# Conditions: HepG2 CAGA-GFP viability, ATP luminescence, 18 h; cells stimulated with TGF-beta, 500 pg/mL
# From the text: TGF-b is a main component in the TGF-b signaling pathway which plays diverse roles in cellular and development pathways. TGF-b is mediated by transcription factors called "Smads". Although the Smad-dependent pathway is the primary canonical TGF-b signaling mode, TGF-b1 can also activate alternative signaling pathways, including those involving MAPK (ERK, JNK and p38). This interaction may mediate or enhance Smad-dependent responses, or can exert Smad-independent effects. The complexity of this signaling cascade allows the TGF-b superfamily to perform unique, overlapping or redundant functions. […] We aim to identify Smad3-small molecule antagonists using a quantitative high throughput screening (qHTS) approach. […]
# Suspensions of trypsinized HEPG2 CAGA-GFP cells were dispensed into white, tissue culture-treated, solid 1536-well plates at 5uL/well (1000 cells/well final concentration) in DMEM medium supplemented with 1% FBS. […] Two uL of CellTiter Glo (Promega), a luminescence-based viability reagent, was dispensed, followed by a 10 minute room temperature incubation. The plates were then measured on a PerkinElmer ViewLux plate reader for luminescence (clear filter) using a 5 second exposure. The %Activity was determined from the corrected luminescence values. […] Concentration-response curves were fitted to the signals arising from the resulting luminescence. […]
# Potency is read from the fitted curve at half-maximal effect.
row,Compound,Potency
1,CC1=CC2OC3CC4OC(=O)C=CC=CC(=O)OCCC(C)C(O)C(=O)OCC2(CC1O)C4(C)C31CO1 (stereo unspecified),active: 51.7 nM
